How the values were obtained:
[1] = Release kinetics in vitro of alendronate from PLGA-ALN carriers in PBS; type: physicochemical; settings: for concentration of the released alendronate: in PBS
[2] = system: rat femur bone defect; settings: 6 weeks after implantation

poly(lactic-co-glycolic acid) cross-linked alendronate [PLGA-ALN]
alendronate release each day ([1]; first two days, per day): 16% | two days release of alendronate ([1]; first two days, total): 32% | concentration of the released alendronate ([1]; first two day of burst release): ~5.5e-07 M | concentration of the released alendronate ([1]; remaining 10 days): 1.2 to 0.5×10^−7 M | alendronate release per day ([1]; remaining days): 4 to 8% | effect of implantation on the new bone formation process (viable cells in lacunae) [2]: did not affect the new bone formation process | fibril collagen formation (Masson staining) [2]: did not alter the fibril collagen formation

Reference: patent US9889225B2, “Method for bone formation by administering poly(lactic-co-glycolic acid) cross-linked alendronate” (KAOHSIUNG MEDICAL UNIVERSITY, priority 2010, dated 2018)
